Values quoted from earlier work, collected in publication PMC9537296 (Scientific Reports, 2022).

Conditions: in vivo; cited from earlier work

Question: With Dasiglucagon as the substance, how does the T1/2 read?
Answer: The T1/2 was ~ 30 min.
